Columns and labels:
[1] = biological target: cellular GLS activity in PC3 cells (Homo sapiens (Human), UniProt O94925); test: GLS Cell Potency Assay (PC3 coupled assay measuring cellular glutamate depletion); type: cell-based; details: PC3 cells, 6 h incubation, glutamate depletion; read-out: Assay b) GLS cell MOA Mean IC50
Description: (§1) The following assays were used to measure the effects of the compounds described herein: a) GLS Enzyme Potency Assay; b) GLS Cell Potency Assay; c) GLS Cell Proliferation Assay. During the description of the assays, generally: • i. The following abbreviations have been used: CO2=Carbon dioxide; DMEM=Dulbecco's Modified Eagle Medium; DMSO=Dimethyl sulphoxide; EDTA=Ethylenediaminetetraacetic acid; EGTA=Ethylene glycol tetraacetic acid; FCS=Foetal calf serum; h=Hour(s); NBS=Non-binding surface; SDS=Sodium dodecyl sulphate; TRIS=Tris(Hydroxymethyl)aminomethane. • ii. IC50 values were calculated using a smart fitting model in Genedata.
Assay b): GLS Cell Potency Assay
Compounds were assessed for their potential to inhibit cellular GLS activity by use of a PC3 coupled assay measuring cellular glutamate depletion. […] DMSO concentration was maintained at 0.3% by back filling with DMSO solution. PC3 cells were grown in phenol free DMEM, 10% dialyzed FCS, 2 mM glutamine and following dispersal by trypsinisation were plated at 5.6×10^3 cells per well in 40 μl of growth medium directly into the 384 well assay plates containing dispensed compound. After incubation for 6 h at 37° C., 5% CO2 growth media was aspirated and cells lysed in 15 μl of buffer containing 10 mM TRIS pH7.4, 100 mM NaCl, 1 mM EDTA, 1 mM EGTA, 1 mM NaF, 20 mM Na4P2O7, 2 mM Na3VO4, 1% Triton X-100, 10% glycerol, 0.1% SDS and 0.5% deoxycholate.

Sequences of proteins named here, by UniProt entry; tags and fusion partners are left off. Residues count along the entry.
UniProt O94925, 73-669: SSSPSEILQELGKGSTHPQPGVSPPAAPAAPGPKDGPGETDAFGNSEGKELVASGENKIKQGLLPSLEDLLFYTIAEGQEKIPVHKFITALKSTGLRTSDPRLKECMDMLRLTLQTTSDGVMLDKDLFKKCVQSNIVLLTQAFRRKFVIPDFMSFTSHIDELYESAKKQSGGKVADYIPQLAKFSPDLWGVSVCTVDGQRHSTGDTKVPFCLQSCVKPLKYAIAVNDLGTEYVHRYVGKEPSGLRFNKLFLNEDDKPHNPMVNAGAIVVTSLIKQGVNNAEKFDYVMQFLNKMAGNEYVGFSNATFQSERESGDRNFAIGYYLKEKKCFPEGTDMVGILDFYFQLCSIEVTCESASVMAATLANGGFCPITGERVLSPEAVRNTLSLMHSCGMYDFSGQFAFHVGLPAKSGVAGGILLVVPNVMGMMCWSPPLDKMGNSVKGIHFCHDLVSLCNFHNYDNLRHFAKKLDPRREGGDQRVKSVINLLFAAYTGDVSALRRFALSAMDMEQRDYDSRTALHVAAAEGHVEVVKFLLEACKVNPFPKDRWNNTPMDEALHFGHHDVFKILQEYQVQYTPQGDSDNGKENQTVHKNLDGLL
UniProt O94925, 63-669: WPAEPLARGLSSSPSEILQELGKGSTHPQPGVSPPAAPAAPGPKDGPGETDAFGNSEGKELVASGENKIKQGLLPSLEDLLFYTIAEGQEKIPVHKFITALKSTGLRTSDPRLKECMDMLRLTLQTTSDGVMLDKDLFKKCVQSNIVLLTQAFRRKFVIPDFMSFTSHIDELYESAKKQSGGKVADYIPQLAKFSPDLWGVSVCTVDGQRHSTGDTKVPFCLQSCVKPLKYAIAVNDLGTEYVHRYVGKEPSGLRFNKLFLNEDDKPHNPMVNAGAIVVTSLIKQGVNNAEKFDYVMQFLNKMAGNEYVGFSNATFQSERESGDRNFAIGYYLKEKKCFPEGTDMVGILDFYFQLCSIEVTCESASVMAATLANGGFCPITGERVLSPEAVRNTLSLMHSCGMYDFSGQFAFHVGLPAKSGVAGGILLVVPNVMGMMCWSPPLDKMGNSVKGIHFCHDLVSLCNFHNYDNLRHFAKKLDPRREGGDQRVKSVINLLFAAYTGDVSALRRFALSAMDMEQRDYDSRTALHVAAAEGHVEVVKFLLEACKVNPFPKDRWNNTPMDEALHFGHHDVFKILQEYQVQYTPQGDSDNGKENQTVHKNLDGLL

GLS1 = GLS1 (Homo sapiens (Human), UniProt O94925); test: GLS Enzyme Potency Assay (Glutamate Oxidase/AmplexRed coupled assay); type: biochemical; details: 6His tagged GLS protein (amino acids 63-669), recombinant; read-out: Assay a) enz IC50
Description: as §1
Assay a): GLS Enzyme Potency Assay
A Glutamate Oxidase/AmplexRed coupled assay was used to measure the ability of compounds to bind to and inhibit the activity of GLS1 in vitro. […] GLS1 was diluted to 2× working concentration and incubated at room temperature to allow the tetrameric/dimeric forms to reach steady state. Assay measurements were performed in buffer comprising 50 mM TRIS pH 7.8, 100 mM NaPO4, pH 7.8, 0.001% v/v Tween20. Purified recombinant GLS1 protein was diluted in assay buffer to 12 nM and pre-incubated at room temperature for 30 minutes. […] DMSO concentration was maintained at 2% by back filling with DMSO solution. 3 μL of diluted GLS1 protein (12 nM) was then dispensed into each well using a BioRaptr automated dispenser (Beckman-Coulter) and incubated for 15 minutes at room temperature. 3 μL of 100 mM glutamine diluted in assay buffer was then added and the reaction incubated at room temperature for 60 minutes. […] An artefact version of the assay where the 6His tagged GLS protein and glutamine were replaced with assay buffer was also used to rule out non specific effects on the assay components.

Row | SMILES | IC50 [1] | IC50 (GLS1)
1 | COC[C@H](C(=O)Nc1nnc(N[C@@H]2CCN(c3cccnn3)C2)s1)c1cccc(OC)c1 (single isomer, unassigned) [5(b)] | 18.1 nM | –
2 | CCO[C@H](C(=O)Nc1nnc(N[C@@H]2CCN(c3cccnn3)C2)s1)c1cccc(OC(F)F)c1 (single isomer, unassigned) [17(b)] | 7.11 nM | –
3 | CCO[C@H](C(=O)Nc1nnc(N[C@@H]2CCN(c3cccnn3)C2)s1)c1cccc(OC(F)(F)F)c1 (single isomer, unassigned) [19(b)] | 3.07 nM | –
4 | COC[C@H](C(=O)Nc1nnc(N[C@@H]2CCN(c3cccnn3)C2)s1)c1cccc(OC)c1 (single isomer, unassigned) [Example 5(a)] | 1.22 nM | 28.8 nM
5 | CCO[C@H](C(=O)Nc1nnc(N[C@@H]2CCN(c3cccnn3)C2)s1)c1cc(OC)cc(OC)c1 (single isomer, unassigned) [Example 6(a)] | – | 28 nM
6 | CCO[C@H](C(=O)Nc1nnc(N[C@@H]2CCN(c3cccnn3)C2)s1)c1cccc(OC(F)F)c1 (single isomer, unassigned) [Example 17(a)] | – | 50.4 nM
7 | CCO[C@H](C(=O)Nc1nnc(N[C@@H]2CCN(c3cccnn3)C2)s1)c1cccc(OC(F)(F)F)c1 (single isomer, unassigned) [Example 19(a)] | 0.473 nM | 40.1 nM

Further lines, results first:

Row | IC50 [1] | IC50 (GLS1) | SMILES
8 | 4.11 nM | – | CO[C@H](C(=O)Nc1nnc(N[C@@H]2CCN(c3cccnn3)C2)s1)c1cccc(N2CC(F)(F)C2)c1 (single isomer, unassigned) [2(b)]
9 | 36.4 nM | – | COC1CN(c2cccc([C@H](OC)C(=O)Nc3nnc(N[C@@H]4CCN(c5ccc(F)nn5)C4)s3)c2)C1 (single isomer, unassigned) [9(b)]
10 | 83.6 nM | – | COC1CN(c2cccc([C@H](OC)C(=O)Nc3nnc(N[C@@H]4CCN(c5ccc(C)nn5)C4)s3)c2)C1 (single isomer, unassigned) [12(b)]
11 | 0.841 nM | – | CO[C@H](C(=O)Nc1nnc(N[C@@H]2CCN(c3cccnn3)C2)s1)c1ccc(F)c(OC(F)(F)F)c1 (single isomer, unassigned) [20(b)]
12 | 0.245 nM | 87.2 nM | CO[C@H](C(=O)Nc1nnc(N[C@@H]2CCN(c3cccnn3)C2)s1)c1cccc(N2CC(F)(F)C2)c1 (single isomer, unassigned) [Example 2(a)]
13 | 1.02 nM | 59.1 nM | COC1CN(c2cccc([C@H](OC)C(=O)Nc3nnc(N[C@@H]4CCN(c5ccc(F)nn5)C4)s3)c2)C1 (single isomer, unassigned) [Example 9(a)]
14 | 1.93 nM | 43.8 nM | COC1CN(c2cccc([C@H](OC)C(=O)Nc3nnc(N[C@@H]4CCN(c5ccc(C)nn5)C4)s3)c2)C1 (single isomer, unassigned) [Example 12(a)]
15 | 2.07 nM | 69.3 nM | CO[C@H](C(=O)Nc1nnc(N[C@@H]2CCN(c3cccnn3)C2)s1)c1ccc(F)c(OC(F)(F)F)c1 (single isomer, unassigned) [Example 20(a)]

Source: US10323028B2, “1,3,4-thiadiazole compounds and their use in treating cancer” (AstraZeneca AB, priority 2015, dated 2019)
